The experiment concerns the target T1, M1 receptor (Homo sapiens, UniProt P11229).
T1 construct: host or cells: CHO (ATCC), pcDNA3
Put plainly: M1 radioligand binding. As to conditions: reference compound.

By UniProt entry, the sequences of proteins in these tests, tags left out. Where a name states a change or a piece, a line headed by the entry shows the natural chain unless it says otherwise.
UniProt P11229: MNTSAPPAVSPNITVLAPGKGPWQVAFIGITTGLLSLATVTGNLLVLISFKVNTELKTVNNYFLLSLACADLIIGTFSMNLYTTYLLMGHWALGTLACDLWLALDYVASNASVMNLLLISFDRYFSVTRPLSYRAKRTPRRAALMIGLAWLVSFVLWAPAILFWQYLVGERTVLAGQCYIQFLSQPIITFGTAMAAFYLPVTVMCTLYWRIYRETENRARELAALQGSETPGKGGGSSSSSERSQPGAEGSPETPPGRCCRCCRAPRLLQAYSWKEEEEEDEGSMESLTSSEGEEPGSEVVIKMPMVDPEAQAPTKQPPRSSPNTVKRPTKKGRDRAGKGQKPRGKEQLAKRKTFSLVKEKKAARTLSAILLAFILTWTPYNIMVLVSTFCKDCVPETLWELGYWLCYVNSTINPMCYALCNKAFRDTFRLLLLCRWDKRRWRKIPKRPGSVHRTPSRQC

Turning to `CC(C)[N+]1(C)[C@@H]2CC[C@H]1C[C@@H](OC(=O)C(CO)c1ccccc1)C2` (stereo partly shown) [Ipratropium], affinity was put at a Ki of 0.81 nM.

(Values after paper PMC4965013, “Open Source Drug Discovery with the Malaria Box Compound Collection for Neglected Diseases and Beyond” (PLoS Pathogens, 2016).)
